Columns and labels:
FoxA2 = FoxA2 mRNA expression by qPCR in primary ventral midbrain cultures; conditions: primary ventral midbrain cells of E12 CD1 mice, 10 μM for 24 hours, qPCR vs 18S
En-1 = En-1 mRNA expression by qPCR in primary ventral midbrain cultures; conditions: primary ventral midbrain cells of E12 CD1 mice, 10 μM for 24 hours, qPCR vs 18S

CCCCC1C(=O)N(c2ccccc2)N(c2ccccc2)C1=O [Phenolbutazone]
Fold Increase in FoxA2 Expression (FoxA2): 2.21 Fold | Fold Increase in En-1 Expression (En-1): 1.82 Fold

Reference: patent US20130261165A1, “PREVENTION AND TREATMENT OF DISEASES CHARACTERIZED BY MESENCEPHALIC DOPAMINERGIC NEURON CELL DEATH” (THE MCLEAN HOSPITAL CORPORATION, priority 2010, published 2013)
